## Antibody variant affinities, Ab-14 light chain, assay B

Data: MIT Lincoln Laboratory AlphaSeq set, Li et al. 2023, doi:10.1038/s41467-023-39022-2, as distributed in FLAb.

Target: peptide PDVDLGDISGINAS, taken from heptad repeat 2 (HR2) of SARS-CoV-2 spike.

Parent: Ab-14, a human scFv built as VH, a (GGGGS)3 linker, VL. Only the CDRs of the light chain vary.
VH: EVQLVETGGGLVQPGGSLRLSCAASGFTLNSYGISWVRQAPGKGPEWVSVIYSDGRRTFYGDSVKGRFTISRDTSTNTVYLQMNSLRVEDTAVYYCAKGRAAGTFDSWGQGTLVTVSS
VL: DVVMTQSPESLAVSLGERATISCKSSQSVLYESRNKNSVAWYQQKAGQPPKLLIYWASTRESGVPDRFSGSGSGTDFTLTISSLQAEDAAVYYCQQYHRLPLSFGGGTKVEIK

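The parent was found by panning a naive human phage display library on the peptide. The variants were designed computationally from a first round of random CDR variants and then made and measured. Several design methods are mixed in this list. The scFvs were displayed on barcoded MATa yeast, the peptide on MATalpha yeast. After mating in shaken culture at 30 °C for 16 h, diploids were selected and their barcode pairs sequenced. Each replicate has its own calibration line, from reference interactions of the BCL2 family. Each pool was mated in six replicate cultures.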

Variants are written as CDR1, CDR2 and CDR3 of the light chain (limits as in the source). Parent: KSSQSVLYESRNKNSVA, WASTRES, QQYHRLPLS. This list holds designs with at most six substitutions. Numbers give log10(Kd / nM), so 0 is 1 nM and 3 is 1 µM. Smaller is tighter. The mean shown is taken over the replicates in which the pair was detected. An entry "nd" has no value in the source: the pair was not observed among the diploids in that replicate. This suggests poor binding but is not conclusive. Order: sorted from the lowest average up, undetected variants last.

Variant KLSQSVPYESRNKNNVA | NASTRES | QQYHRLPLS showed -0.21, -0.49, -0.57, -0.53, -0.36, -0.50 (mean -0.44). Variant KQSQSVLYESRNKNSIA | NANQREQ | QQYHRLPLS gave -0.26, -0.50, -0.67, -0.69, -0.14, -0.36 (mean -0.44). Variant KFSQSMLYESRNKNSVA | DASQRES | QQYHRLPLS showed -0.19, -0.52, -0.66, -0.43, -0.54, -0.15 (mean -0.41). Variant KVSPSVLYESRNKNSVA | QASTRES | QQYHRLPLS showed -0.16, -0.39, -0.54, -0.67, -0.38, -0.28 (mean -0.40). With KLSQSMLYESRNWNSVA | QASTRES | QQYHRLPLT the result was 0.21, -0.20, -0.29, -0.54, -0.27, -0.11 (mean -0.20). With KFSQSVLYESRTKNSVA | NGSTRES | QQYHQLPLS the result was -0.09, -0.12, -0.11, -0.39, -0.21, -0.06 (mean -0.16). Variant KLSQSVGYESRNKNSVA | EASTREE | QQYHRLPLS showed -0.06, 0.02, -0.04, -0.28, -0.13, -0.15 (mean -0.11). Variant KLPQSDLYESRNKNSVA | NASQRES | QQYHRLPLS gave -0.15, -0.21, 0.00, -0.08, -0.07, -0.05 (mean -0.09).

For KLSQSVCYESRNKNSVA | NASTRMS | QQYHRLPLS, the assay gave 0.12, -0.12, -0.10, -0.32, -0.03, -0.09 (mean -0.09). Variant KLPQSVGYESRNKNSVA | HASTRES | QQYHRLPLS gave 0.00, 0.13, -0.09, -0.25, -0.21, 0.04 (mean -0.06). Variant KSSISWLYESRNKNSVA | EASTREQ | QQYHRLPLS gave -0.08, 0.11, -0.02, -0.19, -0.16, 0.17 (mean -0.03). Variant KLSDSVLYESRNKNSVA | NASTRES | QQYHRLPLM showed 0.04, 0.08, -0.05, -0.18, -0.11, 0.08 (mean -0.02). With KVSFSYLLESRNKNSVA | EASTRED | QQYHRLPLS the result was 0.25, 0.04, 0.02, -0.05, 0.18, 0.02 (mean 0.08). Variant KVSWSWLYESRNKNSVA | NASQRES | QQYHRLPLS showed 0.18, 0.11, 0.29, -0.40, 0.24, 0.24 (mean 0.11). Variant KLSQSTLYESRMKNSVA | NASTRLS | QQYHRLPLS showed 0.23, 0.08, 0.01, 0.06, 0.18, 0.17 (mean 0.12). With KFYPSYLYESRNKNSVA | QASTRES | QQYHLLPLS the result was 0.30, 0.08, -0.05, 0.01, 0.20, 0.39 (mean 0.16).

For KLQQSVLYESRVKNSVA | NASTRES | QQYHRLPLS, the assay gave 0.41, 0.18, 0.10, 0.16, 0.24, 0.22 (mean 0.22). Variant KLSQSEEYESRNKNSVA | NASTRES | QQYHRLPLS gave 0.83, 0.18, -0.24, 0.30, 0.31, 0.42 (mean 0.30). Variant KQSQSVLMESRNWNSVA | DASTRES | QQYHRLPLS gave 0.41, 0.27, 0.37, 0.26, 0.40, 0.58 (mean 0.38). Variant KSSQSVLYESRQKDSVA | EASTRES | QQYHRLPLF showed 0.63, 0.73, 0.62, 0.65, 0.44, 0.74 (mean 0.63). Variant KSSQSQLYESRPKNSVA | SASTRES | QQYHRLPLK showed 0.77, 0.84, 0.70, 0.97, 0.92, 0.93 (mean 0.86). With KSGQGVLYESRNCNSVA | GASTRES | AQYHRLPLS the result was 0.85, 0.85, 0.87, 1.18, 0.98, 1.36 (mean 1.02). Variant KSSQSVLYESINANSVA | WASTRES | QQYHRLPLS gave 0.47, 1.26, 0.88, 1.04, 1.58, 1.22 (mean 1.08). For KLQQSELYESRNKNSVA | EASYRES | QQYHRLPLS, the assay gave 1.10, 1.20, 0.99, 0.90, 1.39, 1.10 (mean 1.11).

With KFSQSVLSYSRNKNSVA | WASTRES | QQYHRLPLS the result was 1.31, 1.05, 1.28, 0.67, 1.55, 0.98 (mean 1.14). Variant KMQQSGLYESRNKNSVA | WASRRES | QQYHRLPLS showed 0.91, 1.01, 1.51, 1.06, 1.34, 1.13 (mean 1.16). For KSPQSVLYHSRNSNSVA | GASLRES | QQYHRLPLS, the assay gave 1.04, 2.37, 1.28, 0.56, 1.37, 0.46 (mean 1.18). Variant KTSQSVLYESENKNSVA | WASTRES | QQYHRLPLS showed 1.26, 1.66, 1.36, 1.28, 1.30, 1.02 (mean 1.31). Variant KSSQSVLGELRNKNSVA | WASTRES | QQYHRLPLS showed 1.26, 1.50, 1.23, 1.07, 1.81, 1.16 (mean 1.34). For KSSQSWLYESRNKNSVA | GFSTVEF | QQQHRLPLS, the assay gave nd, 2.20, nd, 4.01, nd, 3.30 (mean 3.17). For HSSGSVLYESRNKQSVA | WGSTRES | FQYHRLPLS, the assay gave nd, nd, nd, nd, nd, nd.

The first 3 entries again:

For KLSQSVPYESRNKNNVA | NASTRES | QQYHRLPLS, the assay gave -0.21, -0.49, -0.57, -0.53, -0.36, -0.50 (mean -0.44).
For KQSQSVLYESRNKNSIA | NANQREQ | QQYHRLPLS, the assay gave -0.26, -0.50, -0.67, -0.69, -0.14, -0.36 (mean -0.44).
For KFSQSMLYESRNKNSVA | DASQRES | QQYHRLPLS, the assay gave -0.19, -0.52, -0.66, -0.43, -0.54, -0.15 (mean -0.41).

The parent sequence was in this pool as ten entries: three were never detected, three once, and four in most replicates, with averages from 0.34 to 2.37. In the paper, a design with two or fewer of six values counts as a poor binder. As a blank, each scFv also met three strains without target: over all light chain designs, 4% of these pairings were detected, typically at 2.64 and seldom below 1.59. The range of this assay differs from that of the first round, and the authors advise against merging the two.